Experiment [1] addresses endothelin-converting enzyme (ECE) (Homo sapiens, UniProt P42892). Nature of the experiment: Fluorimetric ECE activity assay with fluorescent peptide substrates (96-well plates). Conditions: read-out: Km (affinity constant of the enzyme for a substrate); 50 mM Tris-maleate buffer, pH 6.5; calculated using the ENZFITTER program. The procedure: Various preparations containing ECE can be used, such as, for example, recombinant human ECE-1c expressed in Cos-1 cells (Shimada et al., J. Biol. Chem. (1994) 269, 18275–18278) or CHO cells (Xu et al. Cell (1994) 78, 473–485).
In all cases, the presence of the enzyme is tested by Western blotting using an antibody and its concentration is evaluated by comparison with the purified enzyme.
The ECE activity is determined in 96-well plates, generally under the following conditions:
100 μl of 50 mM Tris-maleate buffer, pH 6.5, 20 μM or 5 μM of fluorescent peptide 1s or 2s and 10 μl of a solution of ECE diluted as a function of its purity and such that the cleavage of the fluorescent substrate remains less than 5%. […] The reaction is stopped in various ways, for example heating to 90° C., abrupt cooling to 4° C., adding an organic solvent such as dioxane to 20% of the final volume, and then the reading is performed using a fluorimeter (λex=340 nm; λem=400 nm) optionally coupled to the automated analysis system. The use of a network fluorimeter considerably further increases the sensitivity of the assay by reading the fluorescence at 377 nm. […]
The KI values for the inhibitors can be determined automatically using the degradation percentages at various concentrations and comparison with a standard range. […]

Protein sequences, listed by entry. Tags and fused reporters are not part of them. Residues count along the entry.
UniProt P42892, 1-754 isoform 3: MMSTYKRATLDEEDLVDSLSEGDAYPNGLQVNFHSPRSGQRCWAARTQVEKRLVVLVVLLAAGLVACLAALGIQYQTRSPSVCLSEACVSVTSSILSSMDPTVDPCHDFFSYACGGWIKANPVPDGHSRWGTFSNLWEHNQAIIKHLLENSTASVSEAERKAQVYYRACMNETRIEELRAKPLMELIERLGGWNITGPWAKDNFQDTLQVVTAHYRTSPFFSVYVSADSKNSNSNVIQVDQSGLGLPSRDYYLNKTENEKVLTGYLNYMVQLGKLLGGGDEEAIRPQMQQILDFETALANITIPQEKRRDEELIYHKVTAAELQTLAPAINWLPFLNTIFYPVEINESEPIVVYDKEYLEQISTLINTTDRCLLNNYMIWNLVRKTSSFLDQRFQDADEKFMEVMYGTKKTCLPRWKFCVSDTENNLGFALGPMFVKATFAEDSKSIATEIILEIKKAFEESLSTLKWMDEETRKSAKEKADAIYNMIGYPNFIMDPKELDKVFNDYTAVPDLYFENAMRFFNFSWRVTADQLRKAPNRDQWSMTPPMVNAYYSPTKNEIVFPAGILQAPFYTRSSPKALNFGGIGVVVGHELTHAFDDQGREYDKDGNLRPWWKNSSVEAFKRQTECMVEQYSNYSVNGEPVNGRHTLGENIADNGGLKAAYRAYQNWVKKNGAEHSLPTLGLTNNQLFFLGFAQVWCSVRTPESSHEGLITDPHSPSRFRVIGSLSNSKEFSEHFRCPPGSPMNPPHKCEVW

For the next experiment, the target named is ECE (Homo sapiens, UniProt P42892). Nature of the experiment: HPLC analysis of products formed on incubation with ECE. Conditions: single cleavage at the PyA-pNF peptide bond.

With `CSCC[C@H](NC(=O)[C@H](CC(C)C)NC(=O)CNC(=O)[C@H](Cc1ccc([N+](=O)[O-])cc1)NC(=O)[C@H](Cc1ccc2ccc3cccc4ccc1c2c34)NC(=O)[C@H](CCC(N)=O)NC(=O)[C@H](CCC(N)=O)NC(=O)[C@@H]1CCCN1C(=O)[C@H](CCCCN)NC(=O)[C@@H]1CCCN1C(=O)[C@H](CCCNC(=N)N)NC(C)=O)C(N)=O`, the Km – broadly, the concentration of substrate that gives half-maximal velocity – in experiment [1] was 2 µM. The “metabolites produced when incubated with ECE” value on ECE is reported as “only two metabolites”.
